Assay results as given in patent US20040180003A1, “Methods of screening for caloric restriction mimetics and reproducing effects of caloric restriction” (priority 2003, published 2004).
Where two headings read alike, the source gives them in different places.

System: hepatic gene expression

In the case of `CN(CCOc1ccc(CC2SC(=O)NC2=O)cc1)c1ccccn1` (centres unmarked) [Rosiglitazone], the “average fold change in specific mRNA: EST” value (GenBank AA619207, mouse liver, 8 wk in diet vs CON) is reported as −1.7 fold, the “average fold change in specific mRNA: EST” value (GenBank AA959954, mouse liver, 8 wk in diet vs CON) is reported as −1.5 fold and the “average fold change in specific mRNA: Amine N-sulfotransferase” value (GenBank AF026073, mouse liver, 8 wk in diet vs CON) is reported as −1.5 fold. The “average fold change in specific mRNA: EST” value (GenBank AI266885, mouse liver, 8 wk in diet vs CON) was −2.0 fold, the “average fold change in specific mRNA: Cathepsin C (second time)” value (GenBank AI842667, mouse liver, 8 wk in diet vs CON) was 1.7 fold and the “average fold change in specific mRNA: Pre-B-cell colony-enhancing factor” value (GenBank AI852144, mouse liver, 8 wk in diet vs CON) was −1.5 fold. For the same compound, the “average fold change in specific mRNA: Regulator of G-protein signaling 16” value (GenBank AV349152, mouse liver, 8 wk in diet vs CON) was 1.6 fold, the “average fold change in specific mRNA: Quiescin Q6” value (GenBank AW04575, mouse liver, 8 wk in diet vs CON) was 1.6 fold and the “average fold change in specific mRNA: EST” value (GenBank AW060549, mouse liver, 8 wk in diet vs CON) was −1.7 fold. For the same compound, the “average fold change in specific mRNA: Ectonucleotide pyrophosphatase/phosphodiesterase 2” value (GenBank AW122933, mouse liver, 8 wk in diet vs CON) was −1.8 fold, the “average fold change in specific mRNA: Quiescin Q6” value (GenBank AW123556, mouse liver, 8 wk in diet vs CON) was 1.7 fold and the “average fold change in specific mRNA: Glutathione S-transferase, alpha 2 (Yc2)” value (GenBank J03958, mouse liver, 8 wk in diet vs CON) was −1.7 fold. The “average fold change in specific mRNA: Metallothionein 2” value (GenBank K02236, mouse liver, 8 wk in diet vs CON) was 1.6 fold, the “average fold change in specific mRNA: Macrophage expressed gene 1” value (GenBank L20315, mouse liver, 8 wk in diet vs CON) was −1.6 fold and the “average fold change in specific mRNA: Actin, gamma, cytoplasmic” value (GenBank M21495, mouse liver, 8 wk in diet vs CON) was −1.8 fold. For the same compound, the “average fold change in specific mRNA: keratin complex 1, acidic, gene 18” value (GenBank M22832, mouse liver, 8 wk in diet vs CON) was −1.6 fold, the “average fold change in specific mRNA: Tubulin, beta 2” value (GenBank M28739, mouse liver, 8 wk in diet vs CON) was −1.5 fold and the “average fold change in specific mRNA: Inhibitor of DNA binding 3” value (GenBank M60523, mouse liver, 8 wk in diet vs CON) was −1.7 fold. For the same compound, the “average fold change in specific mRNA: Apolipoprotein A-IV” value (GenBank M64248, mouse liver, 8 wk in diet vs CON) was −3.4 fold, the “average fold change in specific mRNA: Activating transcription factor 3” value (GenBank U19118, mouse liver, 8 wk in diet vs CON) was −1.5 fold and the “average fold change in specific mRNA: Cathepsin C” value (GenBank U74683, mouse liver, 8 wk in diet vs CON) was 1.7 fold. The “average fold change in specific mRNA: Suppressor of cytokine signaling 2 (Table 6: Cytokine inducible SH2-containing protein 2)” value (GenBank U88327, mouse liver, 8 wk in diet vs CON) was 1.7 fold, the “average fold change in specific mRNA: Flavin containing monooxygenase 5” value (GenBank U90535, mouse liver, 8 wk in diet vs CON) was −1.5 fold and the “average fold change in specific mRNA: Regulator of G-protein signaling 16” value (GenBank U94828, mouse liver, 8 wk in diet vs CON) was 1.8 fold. The “average fold change in specific mRNA: Metallothionein 1” value (GenBank V00835, mouse liver, 8 wk in diet vs CON) was 1.7 fold, the “average fold change in specific mRNA: Keratin complex 2, basic, gene 8” value (GenBank X15662, mouse liver, 8 wk in diet vs CON) was −1.7 fold and the “average fold change in specific mRNA: Lectin, galactose binding, soluble 1” value (GenBank X15986, mouse liver, 8 wk in diet vs CON) was −1.8 fold. For the same compound, the “average fold change in specific mRNA: Arylsulfatase A” value (GenBank X73230, mouse liver, 8 wk in diet vs CON) was −1.6 fold, the “average fold change in specific mRNA: Insulin-like growth factor binding protein 1” value (GenBank X81579, mouse liver, 8 wk in diet vs CON) was −1.6 fold and the “average fold change in specific mRNA: Thyroid hormone responsive SPOT14 homolog (Rattus)” value (GenBank X95279, mouse liver, 8 wk in diet vs CON) was −1.5 fold. For the same compound, the “average fold change in specific mRNA: Calcium binding protein, intestinal” value (GenBank Y00884, mouse liver, 8 wk in diet vs CON) was 1.6 fold, the “genes altered by drug and changed similarly by LT-CR” value (mouse liver, 8 weeks) was 16 genes and the “genes altered by drug and changed similarly by ST-CR” value (mouse liver, 8 weeks) was 17 genes. For the same compound, the “genes whose drug-induced change is a subset of changes induced by either LT- or ST-CR” value (mouse liver, 8 weeks) was 21 genes, the “percentage of drug-altered genes altered by both LT-CR and ST-CR” value (mouse liver, 8 weeks) was 27% and the “percentage of drug-altered genes changed similarly by LT-CR” value (mouse liver, 8 weeks) was 36%. For the same compound, the “number of genes with significantly changed expression” value (mouse liver, 8 weeks of treatment vs CON) was 44 genes, the “genes with changed expression identical to changes caused by LT-CR” value (mouse liver, 8 weeks, FIG. 2 category LT-CR only) was 4 genes and the “genes with changed expression identical to changes caused by ST-CR” value (mouse liver, 8 weeks, FIG. 2 category ST-CR only) was 5 genes. For the same compound, the “genes with changed expression identical to changes caused by LT-CR and ST-CR” value (mouse liver, 8 weeks, altered by both LT-CR and ST-CR) was 12 genes, the “percentage of drug-specific effects” value (mouse liver, 8 weeks, changes not affected by LT- or ST-CR) was 41% and the “genes with changed expression due to the drug alone (drug-specific changes)” value (mouse liver, 8 weeks, not affected by LT- or ST-CR) was 18 genes. For the same compound, the “genes with changed expression in the opposite direction compared to CR” value (mouse liver, 8 weeks, opposite to LT-CR) was 5 genes and the “average fold change in specific mRNA: DNA cross-link repair 1A, PSO2 homolog (S. cereviciae)” value (mouse, in vivo) was −1.6 fold.
